# Measured values taken from patent US8846704B2, “Thiopyrimidine-based compounds and uses thereof” (YM Biosciences Austraila Pty Ltd, priority 2007, dated 2014).
# Chains of the proteins cited; added tags and fusions are not shown. Residues count along the entry.
# UniProt P23458, 875-1153 limits assumed: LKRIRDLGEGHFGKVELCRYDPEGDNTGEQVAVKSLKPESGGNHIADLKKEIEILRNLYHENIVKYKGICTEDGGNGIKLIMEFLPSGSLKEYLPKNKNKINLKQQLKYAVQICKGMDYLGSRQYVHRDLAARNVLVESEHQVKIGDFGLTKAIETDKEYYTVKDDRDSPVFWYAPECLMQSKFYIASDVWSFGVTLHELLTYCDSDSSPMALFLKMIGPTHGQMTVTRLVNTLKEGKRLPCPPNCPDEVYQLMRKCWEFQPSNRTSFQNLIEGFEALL
# UniProt O60674, whole entry: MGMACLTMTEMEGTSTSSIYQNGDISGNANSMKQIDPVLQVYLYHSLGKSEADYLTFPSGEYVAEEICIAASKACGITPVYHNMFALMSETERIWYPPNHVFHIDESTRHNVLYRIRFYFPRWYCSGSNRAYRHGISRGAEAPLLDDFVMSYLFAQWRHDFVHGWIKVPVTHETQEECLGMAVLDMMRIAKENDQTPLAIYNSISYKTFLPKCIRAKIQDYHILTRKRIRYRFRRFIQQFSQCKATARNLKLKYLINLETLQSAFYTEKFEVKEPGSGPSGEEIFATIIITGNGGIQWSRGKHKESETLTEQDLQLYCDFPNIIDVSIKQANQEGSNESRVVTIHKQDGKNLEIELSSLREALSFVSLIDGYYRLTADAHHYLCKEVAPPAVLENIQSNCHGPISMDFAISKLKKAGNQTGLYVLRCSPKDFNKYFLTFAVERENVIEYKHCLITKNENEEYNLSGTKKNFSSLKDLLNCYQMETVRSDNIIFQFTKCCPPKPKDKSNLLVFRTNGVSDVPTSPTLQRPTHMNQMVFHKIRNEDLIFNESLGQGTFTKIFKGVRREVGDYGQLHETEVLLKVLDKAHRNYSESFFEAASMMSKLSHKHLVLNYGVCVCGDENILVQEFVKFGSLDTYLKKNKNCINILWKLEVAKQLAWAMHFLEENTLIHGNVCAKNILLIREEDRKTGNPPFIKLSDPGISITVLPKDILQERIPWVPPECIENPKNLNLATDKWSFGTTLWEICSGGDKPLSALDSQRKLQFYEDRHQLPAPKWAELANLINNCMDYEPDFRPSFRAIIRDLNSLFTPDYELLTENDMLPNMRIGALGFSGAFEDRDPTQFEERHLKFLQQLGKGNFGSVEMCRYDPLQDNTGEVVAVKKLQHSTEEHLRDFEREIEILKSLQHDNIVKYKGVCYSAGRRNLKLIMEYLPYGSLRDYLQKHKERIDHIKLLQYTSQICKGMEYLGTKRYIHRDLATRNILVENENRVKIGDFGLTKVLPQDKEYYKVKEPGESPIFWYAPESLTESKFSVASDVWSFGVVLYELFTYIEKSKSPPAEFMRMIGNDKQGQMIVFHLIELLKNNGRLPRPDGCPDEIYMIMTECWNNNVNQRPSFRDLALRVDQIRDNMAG
# UniProt O60674, 849-1124 limits assumed: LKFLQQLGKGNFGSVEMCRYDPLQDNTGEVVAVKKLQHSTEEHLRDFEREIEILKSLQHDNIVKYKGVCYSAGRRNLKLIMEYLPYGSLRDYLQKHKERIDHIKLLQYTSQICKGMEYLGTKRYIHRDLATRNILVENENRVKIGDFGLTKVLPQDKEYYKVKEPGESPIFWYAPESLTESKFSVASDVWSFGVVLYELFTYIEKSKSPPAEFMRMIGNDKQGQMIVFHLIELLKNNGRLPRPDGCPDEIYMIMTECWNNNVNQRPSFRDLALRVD
# UniProt P52333, whole entry: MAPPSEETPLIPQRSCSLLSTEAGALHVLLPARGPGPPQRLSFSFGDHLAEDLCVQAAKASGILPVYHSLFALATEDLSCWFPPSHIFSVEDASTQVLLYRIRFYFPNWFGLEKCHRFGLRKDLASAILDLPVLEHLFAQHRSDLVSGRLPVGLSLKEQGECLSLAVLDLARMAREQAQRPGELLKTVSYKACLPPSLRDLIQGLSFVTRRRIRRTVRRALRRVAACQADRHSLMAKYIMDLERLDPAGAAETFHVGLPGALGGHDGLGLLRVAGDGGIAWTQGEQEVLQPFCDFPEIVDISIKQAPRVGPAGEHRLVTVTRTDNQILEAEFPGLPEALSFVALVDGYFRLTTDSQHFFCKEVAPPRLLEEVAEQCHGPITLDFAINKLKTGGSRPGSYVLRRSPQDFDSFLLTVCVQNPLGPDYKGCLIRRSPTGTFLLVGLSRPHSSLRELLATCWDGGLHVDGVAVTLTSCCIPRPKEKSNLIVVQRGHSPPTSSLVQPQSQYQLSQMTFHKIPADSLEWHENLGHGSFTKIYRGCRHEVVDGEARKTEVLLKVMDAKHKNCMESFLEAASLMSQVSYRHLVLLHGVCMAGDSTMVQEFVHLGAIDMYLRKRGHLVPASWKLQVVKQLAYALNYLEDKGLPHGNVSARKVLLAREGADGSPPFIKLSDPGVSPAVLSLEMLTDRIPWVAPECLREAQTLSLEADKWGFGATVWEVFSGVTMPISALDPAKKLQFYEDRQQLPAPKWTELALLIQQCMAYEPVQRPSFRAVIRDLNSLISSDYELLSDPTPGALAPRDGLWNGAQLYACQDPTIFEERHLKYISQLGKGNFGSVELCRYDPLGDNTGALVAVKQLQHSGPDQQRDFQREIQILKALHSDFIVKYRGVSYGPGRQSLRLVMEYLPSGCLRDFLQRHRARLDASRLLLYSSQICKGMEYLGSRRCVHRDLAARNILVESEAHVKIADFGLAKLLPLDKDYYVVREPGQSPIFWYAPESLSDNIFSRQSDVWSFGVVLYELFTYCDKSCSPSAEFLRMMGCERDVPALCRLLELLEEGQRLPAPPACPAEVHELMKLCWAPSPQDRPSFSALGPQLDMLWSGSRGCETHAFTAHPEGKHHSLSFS
# UniProt P52333, 822-1111 limits assumed: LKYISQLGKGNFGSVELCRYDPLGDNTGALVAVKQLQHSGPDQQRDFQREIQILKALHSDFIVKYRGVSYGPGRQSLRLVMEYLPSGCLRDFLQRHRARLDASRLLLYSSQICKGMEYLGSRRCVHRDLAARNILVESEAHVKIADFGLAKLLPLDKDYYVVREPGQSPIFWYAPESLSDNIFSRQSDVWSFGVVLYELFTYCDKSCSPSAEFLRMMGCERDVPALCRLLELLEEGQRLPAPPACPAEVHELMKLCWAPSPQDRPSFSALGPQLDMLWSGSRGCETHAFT
# Assays:
# human JAK1 = human JAK1 (Homo sapiens, UniProt P23458); assay: Alphascreen tyrosine kinase enzyme assay, JAK1 kinase domain; conditions: read-out: JAK1 IC50_nM
# Procedure: (§1) For screening purposes, compounds (in 100% DMSO) were warmed at 37 degrees for at least 20 minutes before use. A […] stock was initially made in assay buffer, where the final concentration of DMSO was 0.3%. The stocks were then diluted in 384 well Optiplates (Packard) where the final concentration of the compound was […].
# The kinase domain of human JAK1 was amplified from U937mRNA using the polymerase chain reaction with the following primers: […]
# The JAK1 PCR products were cloned into the pDest20 destination vector (Gibco). The JAK1 plasmid was then transformed into competent DH10Bac cells (Gibco), and the recombinant baculovirus was prepared via Sf9 insect cell transfection.
# (§2) Baculovirus preparations from each of the constructs were infected into either one or five liters of Sf9 cells (Invitrogen) grown in SF-900 medium (Invitrogen) to a cell density of approximately 1-2×10^6 cells/ml. Cells were infected with virus at a MOI of 0.8-3.0. Cells were harvested and lysed. Tyrosine kinase domains were purified by affinity chromatography on a glutathione-agarose column (Scientifix Pty. Ltd. catalog #: GSH-200). […]
# human JAK2 = human JAK2 (Homo sapiens, UniProt O60674); assay: Alphascreen tyrosine kinase enzyme assay, JAK2 kinase domain; conditions: read-out: JAK2 IC50_nM
# Procedure: as §1
# The kinase domain of human JAK2 was amplified from U937mRNA using the polymerase chain reaction with the following primers: […]
# The JAK2 PCR products were cloned into the pDest20 destination vector (Gibco). The JAK2 plasmid was then transformed into competent DH10Bac cells (Gibco), and the recombinant baculovirus was prepared via Sf9 insect cell transfection.
# as §2
# human JAK3 = human JAK3 (Homo sapiens, UniProt P52333); assay: Alphascreen tyrosine kinase enzyme assay, JAK3 kinase domain; conditions: read-out: JAK3 IC50_nM
# Procedure: as §1
# The kinase domain of human JAK3 was amplified from U937mRNA using the polymerase chain reaction with the following primers: […]
# The JAK3 PCR products were cloned into the pDest20 destination expression vector (Gibco). The JAK3 plasmid was then transformed into competent DH10Bac cells (Gibco), and the recombinant baculovirus was prepared via Sf9 insect cell transfection.
# as §2
# [1] = biological target: BaF3 TELJAK2 cells (BafT_J2) (Homo sapiens, UniProt O60674); assay: Cellular screening, BaF3 TEL:JAK2 cells, Alamar Blue; conditions: read-out: BafT_J2 IC50_nM, 40 hr
# Procedure: (§3) For screening purposes, compounds were diluted in 96 well plates at a concentration of 20 μM. Plates were warmed at 37° C. for 30 minutes before the assay was performed.
# (§4) The coding region encompassing nucleotides 1-487 of TEL was amplified by PCR using the oligonucleotides STEL (5′-GGAGGATCCTGATCTCTCTCGCTGTGAGAC-3′) [SEQ ID NO 14] and 3TEL (5′-AGGC GTCGACTTCTTCTTCATGGTTCTG-3′) [SEQ ID NO 15] and U937 mRNA as a template. A […] restriction site was incorporated into the STEL primer, and a Sal I restriction site was incorporated into the 3TEL primer. The regions encompassing the kinase domain of JAK2 (nucleotides 2994-3914; JAK2F 5′-ACGC GTCGACGGTGCCTTTGAAGACCGGGAT-3′ [SEQ ID NO 16]; JAK2R 5′-ATAGTTTAGCGGCCGCTCAGAATGAAGGTCATTT-3′) [SEQ ID NO 17] and JAK3 (nucleotides 2520-3469; JAK3F 5′-GAAGTCGACTATGCCTGCCAAGACCCCACGATCTT-3′) [SEQ ID NO 18] were generated by PCR using Taq DNA polymerase (Gibco/BRL) and […] as a template. A Sal I restriction site was incorporated into the forward primer of JAK2 and JAK3, a Not I site was incorporated into the JAK2 reverse primer and a Xba I site was added to the reverse primer of JAK3. […]
# (§5) Compounds to be tested were added (10 μL, 10× final concentration) to a flat bottomed 96-well plate. […] The plates were then read at 544 nm.
# BaF3 TELJAK3 cells = BaF3 TELJAK3 cells (Homo sapiens, UniProt P52333); assay: Cellular screening, BaF3 TEL:JAK3 cells, Alamar Blue; conditions: read-out: BafT_J3 IC50_nM, 40 hr
# Procedure: as §3, §4, §5
# BaF3 wild-type cells = assay: Cellular screening, BaF3 wild-type cells, Alamar Blue; conditions: read-out: BAF3wt IC50_nM, 40 hr
# Procedure: as §3
# The growth factor dependant myelomonocytic cell line BaF3 bearing the pTET-off plasmid (Clontech) was transfected with either pTELJAK2 or pTELJAK3, and the transfected cells were selected for growth-factor independent cell growth. The BaF3 wild-type cells were cultured in DMEM containing 10% FCS, 10% WEHI 3B conditioned medium. The BaF3 TELJAK cells ([…]) were cultured in DMEM 10% Tet-System Approved FBS (without WEHI 3B conditioned medium).
# (§6) Cell suspensions were prepared by harvesting cells from culture (the cells used in this test were in late log phase growth with high viability.) Cells were diluted in the appropriate growth medium, as described above, to 1.1× final concentration (from 50,000 cell/mL to 200,000 cell/mL, depending on cell line).
# (§7) Compounds to be tested were added (10 μL, 10× final concentration) to a flat bottomed 96-well plate. The cellular suspension (90 μL per well) was then added, and the plate incubated for 40 hr at 37° C., 5% CO2. Alamar Blue 10 μL per well was added and the plates returned to the incubator for a further 4-6 hours. The plates were then read at 544 nm.
# CTLL2 = assay: Cellular screening, CTLL2 cells, Alamar Blue; conditions: read-out: CTLL2 IC50_nM
# Procedure: as §6, §7
compound,measurement,setting,value
C=CC(=O)Nc1ccc(Sc2nc(Nc3ccc(C(O)(C(F)(F)F)C(F)(F)F)cc3)ncc2C)cc1,IC50,human JAK1,> 1 µM
same,IC50,human JAK2,> 1 µM
same,IC50,human JAK3,< 0.1 µM
same,GI50,[1],< 20 µM
same,GI50,BaF3 TELJAK3 cells,< 1 µM
same,IC50,BaF3 wild-type cells,< 20 µM
same,IC50,CTLL2,< 1 µM
